Patent US8247349B2, “Enhanced abscisic acid analog and fertilizer performance” (Valent BioSciences Corporation, priority 2007, dated 2012)
Some compounds may have been tested in ways that are not shown here.

What was measured:
[1] = system: tomato leaf transpiration; assay: Tomato leaf transpiration inhibition after foliar application (LI-1600 Steady State Porometer); type: in vivo, Tomato (variety: Rutgers)
tomato plant leaves = assay: Phytotoxicity study: number of injured leaves after foliar application; settings: for Number of injured leaves: 100 mM nutrient alone, one foliar application

## ammonium nitrate
[1]; 1 mM alone, foliar, 1 day after treatment
  Transpiration rate (% of control): 107 % of control
[1]; 1 mM alone, foliar, 2 days after treatment
  Transpiration rate (% of control): 107 % of control
[1]; 1 mM alone, foliar, 3 days after treatment
  Transpiration rate (% of control): 106 % of control
[1]; 1 mM alone, foliar, 4 days after treatment
  Transpiration rate (% of control): 83 % of control
[1]; 1 mM ammonium nitrate with 25 ppm PBI-429
  Effect on PBI-429 performance for transpiration inhibition (in words): did not affect PBI-429 performance for transpiration inhibition
[1]; 10 mM alone, foliar, 1 day after treatment
  Transpiration rate (% of control): 95 % of control
[1]; 10 mM alone, foliar, 2 days after treatment
  Transpiration rate (% of control): 95 % of control
[1]; 10 mM alone, foliar, 3 days after treatment
  Transpiration rate (% of control): 131 % of control
[1]; 10 mM alone, foliar, 4 days after treatment
  Transpiration rate (% of control): 106 % of control
[1]; 10 mM ammonium nitrate with 25 ppm PBI-429
  Effect on PBI-429 performance for transpiration inhibition (in words): improved PBI-429 performance for transpiration inhibition
[1]; 100 mM alone, foliar, 1 day after treatment
  Transpiration rate (% of control): 97 % of control
[1]; 100 mM alone, foliar, 2 days after treatment
  Transpiration rate (% of control): 97 % of control
[1]; 100 mM alone, foliar, 3 days after treatment
  Transpiration rate (% of control): 128 % of control
[1]; 100 mM alone, foliar, 4 days after treatment
  Transpiration rate (% of control): 107 % of control
[1]; 1, 10 or 100 mM alone, foliar, 4-day experimental period
  Effect on tomato leaf transpiration (in words): Neither urea nor ammonium nitrate at any of three tested concentrations significantly reduced tomato leaf transpiration
Tomato plant leaves; 100 mM alone, beginning 5 days after treatment
  Phytotoxicity (in words): showed phytotoxicity
Tomato plant leaves; 5 days after treatment
  Number of injured leaves: 8.2
Tomato plant leaves; 10 days after treatment
  Number of injured leaves: 14.8
